Publication PMC3348334 (Bioorganic & medicinal chemistry letters, 2012)

Test system: AR levels in HeLa-AR3A-PSA-(ARE)4-Luc13 cells
Test: Western blotting analysis of AR levels in cell lysates

## O=C(O)c1cccc(Nc2ccc([N+](=O)[O-])c3ccccc23)c1 [Compound 2, 3-((4-nitronaphthalen-1-yl)amino)benzoic acid]
0.1 nM DHT present
  effect on DHT induced increase in AR levels: inhibited in a concentration dependent manner
No DHT
  effect on AR levels in the absence of DHT: reduced AR levels
